The assay concerns the target T1, cACE (Homo sapiens, UniProt P12821).
T1 construct: using purified recombinant single domain human ACE proteins and the human NEP ectodomain as previously described; made in house
Nature of the assay: ACE inhibition assay, cACE (fluorogenic end point, Z-FHL). It is filed as biochemical. The following applies: nACE IC50/cACE IC50. The procedure:
AD014, AD015, and AD016 were tested for in vitro nACE, cACE, and NEP inhibition using purified recombinant single domain human ACE proteins and the human NEP ectodomain as previously described. For an accurate comparison of the inhibitor potencies across different enzymes and substrates, it is preferable to determine inhibition constants (Ki values). […] In the case of these new analogues, it was more challenging to accurately determine Ki values that could reliably be used to determine selectivity. […] This highlights the challenges in extrapolating data from in vitro assays to predict in vivo selectivity between targets. Furthermore, while comparing Ki values (assuming they can be accurately determined in vitro using available kinetic models) provides information on the relative binding affinities in the absence of substrate, in vivo the extent of enzyme inhibition will be affected by the relative concentrations and affinities of the physiological substrates competing for the binding sites. Given that accurate Ki values could not be calculated in a consistent manner for all compound-enzyme combinations, IC50 values are reported (Table 1).
Purified fully glycosylated human cACE and nACE proteins[36],[37] were used in fluorogenic end point activity assays utilizing Cbz-Phe-His-Leu (Z-FHL, Bachem Ltd., nACE Km = 600 μM; cACE Km = 60 μM) as the substrate as previously described.[32] […]

Protein sequences, listed by entry. Tags and fused reporters are not part of them. Residues count along the entry.
UniProt P12821, 643-1222 limits assumed: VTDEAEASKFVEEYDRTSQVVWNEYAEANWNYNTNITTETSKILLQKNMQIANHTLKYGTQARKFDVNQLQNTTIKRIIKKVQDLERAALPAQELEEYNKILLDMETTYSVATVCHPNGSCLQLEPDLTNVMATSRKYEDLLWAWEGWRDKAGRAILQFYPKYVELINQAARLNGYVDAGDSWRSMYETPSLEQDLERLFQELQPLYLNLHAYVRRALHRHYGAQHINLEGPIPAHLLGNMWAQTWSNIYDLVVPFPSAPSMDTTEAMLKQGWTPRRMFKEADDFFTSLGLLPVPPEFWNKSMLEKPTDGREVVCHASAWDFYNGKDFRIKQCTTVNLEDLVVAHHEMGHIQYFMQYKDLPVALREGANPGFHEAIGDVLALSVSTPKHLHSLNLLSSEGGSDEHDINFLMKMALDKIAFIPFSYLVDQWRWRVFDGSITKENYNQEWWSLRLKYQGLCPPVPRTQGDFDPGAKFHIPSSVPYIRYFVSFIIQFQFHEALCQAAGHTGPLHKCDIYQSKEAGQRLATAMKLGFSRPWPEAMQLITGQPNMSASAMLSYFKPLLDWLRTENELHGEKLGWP

Consider `O=C(N[C@H]1CCS[C@H]2CCC[C@@H](C(=O)O)N2C1=O)[C@@H](S)Cc1ccccc1` [Omapatrilat, reference compound], for which the C-selectivity factor is on record as 2. As for `Cc1ccc([C@H]2CC[C@@H](C(=O)O)N2C(=O)CNC(=O)[C@@H](S)Cc2ccccc2)cc1` [AD015, (2S,5R)-1-(((S)-2-Mercapto-3-phenylpropanoyl)glycyl)-5-(p-tolyl)pyrrolidine-2-carboxylic Acid], the C-selectivity factor is 24.

Source of the values: PMC11997989, “Design of Novel Mercapto-3-phenylpropanoyl Dipeptides as Dual Angiotensin-Converting Enzyme C–Domain-Selective/Neprilysin Inhibitors” (Journal of Medicinal Chemistry, 2025).
